# What was measured:
# Assay type in all cases: biochemical
# [1] = molecular target: neuraminidase of influenza virus A/California/04/09 (Influenza A virus, UniProt C3W5S3); details: read-out: neuraminidase activity IC50
# [2] = molecular target: neuraminidase of influenza virus A/California/07/09 (H1N1) (Influenza A virus, UniProt C3W6G3); details: read-out: IC50, nM (number of experiments)
# [3] = molecular target: neuraminidase of influenza virus B/Brisbane/60/2008 (Influenza B virus, UniProt C0LT34); details: read-out: IC50, nM (number of experiments)
smiles,measurement,setting,value
"CCC(CC)O[C@@H]1C=C(C(=O)O)C[C@H](N)[C@H]1NC(C)=O [A2, (3R,4R,5S)-5-amino-4-acetamido-3-(pentan-3-yloxy)cyclohex-1-enecarboxylic acid, reference compound]",IC50,[1],0.8 nM
same,IC50,[2],0.86 nM
same,IC50,[3],25.4 nM

# Reference: patent US8895613B2 (priority 2013, dated 2014)
